Molecular target: Adenosine receptor A1 (Cavia porcellus, UniProt P47745)

Sequences of proteins named here, by UniProt entry; tags and fusion partners are left off.
UniProt P47745, whole entry: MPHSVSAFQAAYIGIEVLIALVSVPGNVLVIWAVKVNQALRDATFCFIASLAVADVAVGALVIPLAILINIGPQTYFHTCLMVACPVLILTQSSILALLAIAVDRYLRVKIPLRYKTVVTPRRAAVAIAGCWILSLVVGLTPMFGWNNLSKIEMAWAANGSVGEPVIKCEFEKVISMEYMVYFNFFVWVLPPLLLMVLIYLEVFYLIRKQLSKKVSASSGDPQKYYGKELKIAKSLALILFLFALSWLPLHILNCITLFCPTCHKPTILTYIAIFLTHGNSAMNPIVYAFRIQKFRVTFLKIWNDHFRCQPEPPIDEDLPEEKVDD

Question: `Nc1nc2ccc(Cl)cc2c2nc(-c3ccco3)nn12` [CGS-15943] was tested. Which Ki did it give?
Answer: 10 nM

— ChEMBL document CHEMBL1125524, “Adenosine A1 antagonists. 2. Structure-activity relationships on diuretic activities and protective effects against acute renal failure” (J Med Chem, 1992)
